According to patent US6936585B2, “Corticotropin releasing factor 2 receptor agonists” (priority 2002, dated 2005):

How the values were obtained:
CRF2R = molecular target: T1, CRF2R (Homo sapiens, UniProt Q13324); test: CRF2R agonist activation (EC50 / Emax), called comparative CRF binding; format: cell-based; details: for Emax: read-out: CRF2R Emax
T1 sequence (Q13324 1-411): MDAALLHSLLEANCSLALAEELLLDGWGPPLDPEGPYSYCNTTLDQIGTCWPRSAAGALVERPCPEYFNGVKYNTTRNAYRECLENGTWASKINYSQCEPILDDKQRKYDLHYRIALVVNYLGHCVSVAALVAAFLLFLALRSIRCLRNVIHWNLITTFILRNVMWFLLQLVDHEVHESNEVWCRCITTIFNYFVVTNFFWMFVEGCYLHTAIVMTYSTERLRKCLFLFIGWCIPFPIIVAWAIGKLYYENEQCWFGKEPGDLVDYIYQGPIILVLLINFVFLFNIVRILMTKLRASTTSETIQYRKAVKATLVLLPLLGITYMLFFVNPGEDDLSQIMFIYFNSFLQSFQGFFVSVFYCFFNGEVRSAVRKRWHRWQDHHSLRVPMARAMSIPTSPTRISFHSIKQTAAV
In short: (§1)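 Peptides are tested on cells bearing CRF1R or CRF2R, full length or as ligand-binding-domain constructs coupled to reporters or G proteins. Activation is scored by cAMP rise, measured in lysates or by CRE-reporter output, against vehicle control.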

CRF1R = molecular target: T2, CRF1R (Homo sapiens, UniProt P34998); test: CRF1R agonist activation (EC50 / Emax), called comparative CRF binding; format: cell-based; details: for Emax: read-out: CRF1R Emax
T2 sequence (P34998 24-415): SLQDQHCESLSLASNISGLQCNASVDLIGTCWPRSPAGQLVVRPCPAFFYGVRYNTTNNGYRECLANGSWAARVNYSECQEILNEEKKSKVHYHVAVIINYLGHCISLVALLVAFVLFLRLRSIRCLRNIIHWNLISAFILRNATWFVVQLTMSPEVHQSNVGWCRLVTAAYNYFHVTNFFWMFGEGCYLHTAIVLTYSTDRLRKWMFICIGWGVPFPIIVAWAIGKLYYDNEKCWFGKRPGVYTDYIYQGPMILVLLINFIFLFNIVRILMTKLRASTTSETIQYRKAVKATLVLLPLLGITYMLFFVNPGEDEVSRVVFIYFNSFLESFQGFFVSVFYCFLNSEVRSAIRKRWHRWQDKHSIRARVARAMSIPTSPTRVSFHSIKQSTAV
In short: as §1

SMILES	Emax (CRF2R) [%]	Emax (CRF1R) [%]	EC50 (CRF2R) [nM]	EC50 (CRF1R; CRF1R EC50) [nM]
CC[C@H](C)[C@H](NC(=O)[C@@H](NC(=O)[C@H](CC(=O)O)NC(=O)[C@H](CC(C)C)NC(=O)[C@H](CC(C)C)NC(=O)[C@H](CC(C)C)NC(=O)[C@H](C)NC(=O)[C@H](CC(N)=O)NC(=O)[C@H](CC(N)=O)NC(=O)[C@H](C)NC(=O)[C@H](C)NC(=O)[C@H](CCC(N)=O)NC(=O)[C@H](CCC(N)=O)NC(=O)[C@H](CCCCN)NC(=O)[C@H](CCC(=O)O)NC(=O)[C@H](CCCCN)NC(=O)[C@H](CCC(=O)O)NC(=O)[C@H](CCC(N)=O)NC(=O)[C@H](CCCCN)NC(=O)[C@H](CCC(=O)O)NC(=O)[C@@H](NC(=O)[C@H](CCC(=O)O)NC(=O)[C@@H](NC(=O)[C@H](CCSC)NC(=O)[C@H](CCCCN)NC(=O)[C@H](CCCNC(=N)N)NC(=O)[C@H](CC(C)C)NC(=O)[C@H](CC(C)C)NC(=O)[C@H](Cc1ccc(O)cc1)NC(=O)[C@H](Cc1ccccc1)NC(=O)[C@@H]1CCCN1C(=O)[C@H](CC(C)C)NC(=O)[C@H](CC(=O)O)NC(=O)[C@@H](NC(=O)[C@H](CO)NC(=O)[C@@H](NC(=O)[C@@H]1CCCN1C(=O)[C@@H]1CCCN1C(=O)CNC(=O)[C@@H]1CCC(=O)N1)[C@@H](C)CC)[C@@H](C)CC)[C@@H](C)CC)[C@@H](C)CC)[C@@H](C)O)C(N)=O [compound 230]	100	100		
CC[C@H](C)[C@H](NC(=O)[C@@H](NC(=O)[C@H](C)NC(=O)[C@H](CC(C)C)NC(=O)[C@H](CC(C)C)NC(=O)[C@H](CC(C)C)NC(=O)[C@H](C)NC(=O)[C@H](CC(N)=O)NC(=O)[C@H](CC(N)=O)NC(=O)[C@H](C)NC(=O)[C@H](C)NC(=O)[C@H](CCC(N)=O)NC(=O)[C@H](CCC(N)=O)NC(=O)[C@H](CCCCN)NC(=O)[C@H](CCC(=O)O)NC(=O)[C@H](CCCCN)NC(=O)[C@H](CCC(=O)O)NC(=O)[C@H](CCC(N)=O)NC(=O)[C@H](CCCCN)NC(=O)[C@H](CCC(=O)O)NC(=O)[C@@H](NC(=O)[C@H](CCC(=O)O)NC(=O)[C@@H](NC(=O)[C@@H](NC(=O)[C@H](CCCCN)NC(=O)[C@H](CCCNC(=N)N)NC(=O)[C@H](CC(C)C)NC(=O)[C@H](CC(C)C)NC(=O)[C@H](Cc1ccccc1)NC(=O)[C@@H](NC(=O)[C@@H]1CCCN1C(=O)[C@H](CC(C)C)NC(=O)[C@H](CC(=O)O)NC(=O)[C@@H](NC(=O)[C@H](CO)NC(=O)[C@@H](NC(=O)[C@@H]1CCCN1C(=O)[C@@H]1CCCN1C(=O)CNC(=O)[C@@H]1CCC(=O)N1)[C@@H](C)CC)[C@@H](C)CC)[C@@H](C)CC)C(C)C)[C@@H](C)CC)[C@@H](C)CC)[C@@H](C)O)C(N)=O [compound 280]	82.3	11.8		
CC[C@H](C)[C@H](NC(=O)[C@@H](NC(=O)[C@H](CC(=O)O)NC(=O)[C@H](CC(C)C)NC(=O)[C@H](CC(C)C)NC(=O)[C@H](CC(C)C)NC(=O)[C@H](CCCNC(=N)N)NC(=O)[C@H](CC(N)=O)NC(=O)[C@H](CC(N)=O)NC(=O)[C@H](C)NC(=O)[C@H](C)NC(=O)[C@H](CCC(N)=O)NC(=O)[C@H](CCC(N)=O)NC(=O)[C@H](CCCCN)NC(=O)[C@H](CCC(=O)O)NC(=O)[C@H](CCCCN)NC(=O)[C@H](CCC(=O)O)NC(=O)[C@H](CCC(N)=O)NC(=O)[C@H](CCCCN)NC(=O)[C@H](CCC(=O)O)NC(=O)[C@@H](NC(=O)[C@H](CCC(=O)O)NC(=O)[C@@H](NC(=O)[C@H](CCSC)NC(=O)[C@H](CCCCN)NC(=O)[C@H](CCCNC(=N)N)NC(=O)[C@H](CC(C)C)NC(=O)[C@H](CC(C)C)NC(=O)[C@H](Cc1c[nH]cn1)NC(=O)[C@H](C)NC(=O)[C@@H]1CCCN1C(=O)[C@H](CC(C)C)NC(=O)[C@H](CC(=O)O)NC(=O)[C@@H](NC(=O)[C@H](CO)NC(=O)[C@@H](NC(=O)[C@@H]1CCCN1C(=O)[C@@H]1CCCN1C(=O)CNC(=O)[C@@H]1CCC(=O)N1)[C@@H](C)CC)[C@@H](C)CC)[C@@H](C)CC)[C@@H](C)CC)[C@@H](C)O)C(N)=O [compound 206]	97	97		
CC[C@H](C)[C@H](NC(=O)[C@H](CCCNC(=N)N)NC(=O)[C@H](C)NC(=O)[C@H](CC(C)C)NC(=O)[C@H](CC(C)C)NC(=O)[C@H](CCCNC(=N)N)NC(=O)[C@H](C)NC(=O)[C@H](CC(N)=O)NC(=O)[C@H](CC(N)=O)NC(=O)[C@H](C)NC(=O)[C@H](C)NC(=O)[C@H](CCC(N)=O)NC(=O)[C@H](CCC(N)=O)NC(=O)[C@H](CCCCN)NC(=O)[C@H](CCC(=O)O)NC(=O)[C@H](CCCCN)NC(=O)[C@H](CCC(=O)O)NC(=O)[C@H](CCC(N)=O)NC(=O)[C@H](CCCCN)NC(=O)[C@H](CCC(=O)O)NC(=O)[C@@H](NC(=O)[C@H](CCC(=O)O)NC(=O)[C@@H](NC(=O)[C@@H](NC(=O)[C@H](CCCCN)NC(=O)[C@H](CCCNC(=N)N)NC(=O)[C@H](CC(C)C)NC(=O)[C@H](CC(C)C)NC(=O)[C@H](CCC(N)=O)NC(=O)[C@H](Cc1ccc(O)cc1)NC(=O)[C@@H]1CCCN1C(=O)[C@H](CC(C)C)NC(=O)[C@H](CC(=O)O)NC(=O)[C@@H](NC(=O)[C@H](CO)NC(=O)[C@@H](NC(=O)[C@@H]1CCCN1C(=O)[C@@H]1CCCN1C(=O)CNC(=O)[C@@H]1CCC(=O)N1)[C@@H](C)CC)[C@@H](C)CC)C(C)C)[C@@H](C)CC)[C@@H](C)CC)C(N)=O [compound 286]	92.5	19.2	13.5	≥ 1000
CC[C@H](C)[C@H](NC(=O)[C@@H](NC(=O)[C@H](CC(=O)O)NC(=O)[C@H](CC(C)C)NC(=O)[C@H](CC(C)C)NC(=O)[C@H](CC(C)C)NC(=O)[C@H](CCCNC(=N)N)NC(=O)[C@H](CC(N)=O)NC(=O)[C@H](CC(N)=O)NC(=O)[C@H](C)NC(=O)[C@H](C)NC(=O)[C@H](CCC(N)=O)NC(=O)[C@H](CCC(N)=O)NC(=O)[C@H](CCCCN)NC(=O)[C@H](CCC(=O)O)NC(=O)[C@H](CCCCN)NC(=O)[C@H](CCC(=O)O)NC(=O)[C@H](CCC(N)=O)NC(=O)[C@H](CCCCN)NC(=O)[C@H](CCC(=O)O)NC(=O)[C@@H](NC(=O)[C@H](CCC(=O)O)NC(=O)[C@@H](NC(=O)[C@H](CCSC)NC(=O)[C@H](CCCCN)NC(=O)[C@H](CCCNC(=N)N)NC(=O)[C@H](CC(C)C)NC(=O)[C@H](CC(C)C)NC(=O)[C@H](CC(=O)O)NC(=O)[C@@H](NC(=O)[C@@H]1CCCN1C(=O)[C@H](CC(C)C)NC(=O)[C@H](CC(=O)O)NC(=O)[C@@H](NC(=O)[C@H](CO)NC(=O)[C@@H](NC(=O)[C@@H]1CCCN1C(=O)[C@@H]1CCCN1C(=O)CNC(=O)[C@@H]1CCC(=O)N1)[C@@H](C)CC)[C@@H](C)CC)[C@@H](C)O)[C@@H](C)CC)[C@@H](C)CC)[C@@H](C)O)C(N)=O [compound 49]	37	15		
